By UniProt entry, the sequences of proteins in these tests, tags left out. Where a name states a change or a piece, a line headed by the entry shows the natural chain unless it says otherwise.
UniProt A0A646QV53: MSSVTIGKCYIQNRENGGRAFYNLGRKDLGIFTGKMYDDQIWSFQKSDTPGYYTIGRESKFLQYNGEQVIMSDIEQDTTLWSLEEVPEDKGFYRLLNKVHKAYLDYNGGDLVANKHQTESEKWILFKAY

In paper PMC7744527, “The structure of SeviL, a GM1b/asialo-GM1 binding R-type lectin from the mussel Mytilisepta virgata” (Scientific Reports, 2020):

Target: T1, SeviL (Mytilisepta virgata, UniProt A0A646QV53)
T1 construct: This vector directs expression of full-length SeviL carrying a thrombin-cleavable hexa-histidine tag; hexa-histidine tag (thrombin-cleavable; leaves residual GSH before the native Met) (N, cleaved yes); made in house; host or cells: E. coli BL21(DE3)
Experiment: biochemical
Type: binding
Method: Experimental details are given in Methods/Isothermal Titration Calorimetry. […] ITC experiments were repeated with the monomer mutant SeviL (Q12R/F126K). […] Errors in Kd for the native protein and monomer were determined from triplicate experiments. To produce a stronger signal and lower noise, further experiments were attempted with the concentrations of the native protein and ligand increased ten-fold. […] Different stereo views of the interaction between protein and ligand are shown in SFigure 11.
Figure 5 (A) A thermogram produced by injecting 1 mM asialo-GM1 saccharide into 50 μ M SeviL. The experiment was repeated three times, each thermogram being fitted to a one-site model (shown as a black line). Dissociation constants were calculated as weighted averages, and errors were calculated as weighted standard deviations, using the reciprocal chi-square values of each individual fit as weights.
Experiments were performed using a MicroCal iTC200 (GE) instrument. […] The data were analysed using the manufacturer’s software, assuming a simple single site model, to yield a Kd value and chi-square value from each experiment. […] Asialo-GM1 and GM1b were used at 1 mM concentration, each experiment being repeated three times, and errors were determined as the weighted standard deviation of these three values. […]

Work on `O=C[C@H](O)[C@@H](O)[C@@H](O)[C@H](O)CO` [galactose] yielded a Kd of 8 to 12 mM.
